Results from patent publication US20020049193A1, “N-linked sulfonamides of heterocyclic thioesters” (GPI NIL HOLDINGS, INC., priority 1996, published 2002).

By UniProt entry, the sequences of proteins in these tests, tags left out.
UniProt P62942, whole entry: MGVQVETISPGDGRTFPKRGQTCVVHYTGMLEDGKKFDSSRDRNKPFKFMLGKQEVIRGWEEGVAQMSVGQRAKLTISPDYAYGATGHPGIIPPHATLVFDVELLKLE

Tests used:
[1] = system: chick dorsal root ganglia; test: Chick dorsal root ganglion cultures and neurite outgrowth; assay type: cell-based; details: read-out: ED50; neurite outgrowth in chick DRG explants, 48 hours after drug treatment, ranked potency
FKBP12 = FKBP12 (Homo sapiens, UniProt P62942); test: Ki test procedure: inhibition of peptidyl-prolyl isomerase (rotamase) activity, chymotrypsin-coupled assay; assay type: biochemical; details: read-out: Kl, apparent Ki, ranked potency

## Cc1ccc(S(=O)(=O)N2CCCC2C(=O)SCCC(c2ccccc2)c2ccccc2)cc1 (centres unmarked)
[1]
  EC50: < 1 nM
FKBP12
  Ki: 1 to 50 nM
